Like-named read-outs stand apart in the source and are kept apart here.

Consider 1 substance from patent US6730699B2, “Water soluble paclitaxel derivatives” (priority 2001, dated 2004).

This test has as its system MDA-435-Lung2 cells (MDA-MB-435 human breast cancer). The class given is in vivo, nude mice.

In the case of Poly-Glutamic Acid-Paclitaxel [PG-TXL], where the note is “60 mg/kg single i.v.”, the “Lung metastases (mice with lung metastases/mice with tumors)” value is listed as 5/8 (62.5%), the “Mean tumor wt at autopsy” value is reported as 1.23 ± 0.38 g and the “No. tumors regressed at time of autopsy” value was 2/10. Moreover, for the setting “120 mg/kg single i.v.”, the “Lung metastases (mice with lung metastases/mice with tumors)” value was “¼ (25%)”, the “Mean tumor wt at autopsy” value was 0.925 ± 0.12 g and the “No. tumors regressed at time of autopsy” value is 4/8. Besides, the “mice in which tumors shrank/disappeared” value (highest dose (120 mg/kg)) turned out to be 50%.
